# Binding of CDR-mutated scFvs to a peptide of the spike HR2 region

Source: Engelhart et al. 2022 (doi:10.1038/s41597-022-01779-4), MIT Lincoln Laboratory and A-Alpha Bio; data file from the FLAb repository.

Target: peptide PDVDLGDISGINAS, taken from heptad repeat 2 (HR2) of SARS-CoV-2 spike.

Ab-14 is the parent antibody, in scFv form: VH, then a (GGGGS)3 linker, then VL. The heavy chain is unchanged in all variants.
VH: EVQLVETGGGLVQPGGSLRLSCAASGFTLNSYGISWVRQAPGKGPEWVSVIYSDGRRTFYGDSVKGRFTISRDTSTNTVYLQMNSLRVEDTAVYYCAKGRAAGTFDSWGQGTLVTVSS
VL: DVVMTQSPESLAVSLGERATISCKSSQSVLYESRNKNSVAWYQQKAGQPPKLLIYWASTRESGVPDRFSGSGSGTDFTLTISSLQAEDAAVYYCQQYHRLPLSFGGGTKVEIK

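The parent was found by panning a naive human phage display library on the peptide. In library AAYL50, one, two or three CDR residues were substituted; doubles and triples were drawn at random. AlphaSeq pools MATa yeast showing the antibodies with MATalpha yeast showing the peptide. The frequency of each diploid, read from paired DNA barcodes, reflects how well the two displayed proteins bind. A regression on co-assayed BCL2-family reference pairs converts the normalised counts of each replicate to an apparent Kd. Each pool was mated in three replicate cultures.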

The whole VL of each variant is written out.
Affinities are written as log10 Kd with Kd in nM; a lower number is a better binder.
Replicates are averaged; those with no signal do not enter the mean.
A pair that was not seen in that replicate is written "nd"; this usually means weak binding, but a binder can also be missed.
For reference, the parent read 0.65 as the reference entry and 1.68 as a member of this library.
As a blank, each scFv also met three strains without target: over library AAYL50, 18% of these pairings were detected, typically at 4.19 and seldom below 2.99. The control count says in how many pairings with the empty strains this scFv gave a signal.

Variant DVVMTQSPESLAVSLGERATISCKSSQSALYESRNKNSVAWYQQKAGQPPKLLIYWASTRESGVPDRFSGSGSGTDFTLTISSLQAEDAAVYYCQQYHRMPLSFGGGTKVEIK gave 2.60, 5.21, 2.56 (mean 3.46; controls 1 of 9).
Variant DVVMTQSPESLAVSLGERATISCKSSQSVLSESCNKNSVAWYQQKAGQPPKLLIYWASTRVSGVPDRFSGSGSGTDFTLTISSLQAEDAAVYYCQQYHRLPLSFGGGTKVEIK gave 1.97, 1.85, 2.61 (mean 2.14; controls 1 of 9).
Variant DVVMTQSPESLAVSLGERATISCKSSQSVLYESRPKNSVAWYQQKAGQPPKLLIYWAQTRESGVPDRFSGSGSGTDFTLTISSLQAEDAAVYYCDQYHRLPLSFGGGTKVEIK gave 4.44, nd, nd (controls 1 of 9).
Variant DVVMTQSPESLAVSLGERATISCKSSQSVLYESRNKNSTAWYQQKAGQPPKLLIYWASTRESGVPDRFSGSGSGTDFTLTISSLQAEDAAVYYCQQYHRLYLRFGGGTKVEIK gave nd, nd, nd (controls 1 of 9).
Variant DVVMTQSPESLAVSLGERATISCKSSQSVLYESRNKNSVAWYQQKAGQPPKLLIYWLSTRESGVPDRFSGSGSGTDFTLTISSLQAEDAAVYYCQQYHPLPLSFGGGTKVEIK gave nd, nd, nd (controls 1 of 9).
Variant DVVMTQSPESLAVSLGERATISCKSSQSVLYESRNKSFVAWYQQKAGQPPKLLIYWASTRESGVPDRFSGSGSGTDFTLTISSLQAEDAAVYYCQQYHRLPESFGGGTKVEIK gave nd, nd, nd (controls 0 of 9).
Variant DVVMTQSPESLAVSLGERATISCKSSQSVLYESRNKNECAWYQQKAGQPPKLLIYWASTRESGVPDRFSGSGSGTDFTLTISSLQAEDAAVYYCQMYHRLPLSFGGGTKVEIK gave nd, nd, nd (controls 0 of 9).
Variant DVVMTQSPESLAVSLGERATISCKSSIEVLYESRNKLSVAWYQQKAGQPPKLLIYWASTRESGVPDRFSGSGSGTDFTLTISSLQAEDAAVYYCQQYHRLPLSFGGGTKVEIK gave 2.11, 1.99, 2.57 (mean 2.22; controls 2 of 9).
Variant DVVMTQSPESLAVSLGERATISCKSSQSVLYESRNWNSVAWYQQKAGQPPKLLIYWASTRESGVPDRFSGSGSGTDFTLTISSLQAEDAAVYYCQAYHRLPYSFGGGTKVEIK gave 3.08, 3.03, 2.60 (mean 2.90; controls 5 of 9).
Variant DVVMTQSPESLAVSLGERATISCKSSQSVLYESRNKVSVAWYQQKAGQPPKLLIYWASTRESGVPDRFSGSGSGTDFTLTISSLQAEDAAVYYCQVYHRTPLSFGGGTKVEIK gave 3.16, nd, nd (controls 1 of 9).
Variant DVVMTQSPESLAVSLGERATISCKSLTSVLYESRNKNSVAWYQQKAGQPPKLLIYWASTYESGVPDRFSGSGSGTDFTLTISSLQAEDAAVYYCQQYHRLPLSFGGGTKVEIK gave nd, nd, nd (controls 2 of 9).
Variant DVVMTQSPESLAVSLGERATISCKSSQSVLYKSRNKNSVAWYQQKAGQPPKLLIYWATTREEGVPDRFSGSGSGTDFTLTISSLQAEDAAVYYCQQYHRLPLSFGGGTKVEIK gave 0.75, 1.13, 1.16 (mean 1.01; controls 0 of 9).
Variant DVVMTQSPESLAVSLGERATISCKSSQSHLYESINKNSVAWYQQKAGQPPKLLIYWASTREAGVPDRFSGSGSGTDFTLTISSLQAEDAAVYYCQQYHRLPLSFGGGTKVEIK gave 0.67, 0.63, 0.63 (mean 0.65; controls 2 of 9).
Variant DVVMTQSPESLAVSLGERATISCKSSQSVLYESRNKNSVAWYQQKAGQPPKLLIYWDSTRESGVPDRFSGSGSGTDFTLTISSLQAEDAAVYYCQQYHRLPLSFGGGTKVEIK gave 0.85, 1.12, 1.01 (mean 1.00; controls 3 of 9).
Variant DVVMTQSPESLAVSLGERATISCKSSQSVLYESRNKRSAAWYQQKAGQPPKLLIYWASTREKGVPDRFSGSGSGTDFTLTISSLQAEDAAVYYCQQYHRLPLSFGGGTKVEIK gave nd, nd, nd (controls 0 of 9).
Variant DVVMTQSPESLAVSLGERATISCKSSQSVLAESRNAASVAWYQQKAGQPPKLLIYWASTRESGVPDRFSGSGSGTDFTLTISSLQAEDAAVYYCQQYHRLPLSFGGGTKVEIK gave 0.49, 0.69, 0.54 (mean 0.57; controls 1 of 9).

For reference, 3 entries of the list once more:

{"VL": "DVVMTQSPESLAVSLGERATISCKSSIEVLYESRNKLSVAWYQQKAGQPPKLLIYWASTRESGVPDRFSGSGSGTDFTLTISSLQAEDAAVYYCQQYHRLPLSFGGGTKVEIK", "log10 Kd, replicates": "2.11, 1.99, 2.57", "log10 Kd (nM), mean": "2.22", "control signals": "2 of 9"}
{"VL": "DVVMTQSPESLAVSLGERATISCKSSQSVLAESRNAASVAWYQQKAGQPPKLLIYWASTRESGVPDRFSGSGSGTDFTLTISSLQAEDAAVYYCQQYHRLPLSFGGGTKVEIK", "log10 Kd, replicates": "0.49, 0.69, 0.54", "log10 Kd (nM), mean": "0.57", "control signals": "1 of 9"}
{"VL": "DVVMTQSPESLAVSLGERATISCKSSQSALYESRNKNSVAWYQQKAGQPPKLLIYWASTRESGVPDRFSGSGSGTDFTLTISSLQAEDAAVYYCQQYHRMPLSFGGGTKVEIK", "log10 Kd, replicates": "2.60, 5.21, 2.56", "log10 Kd (nM), mean": "3.46", "control signals": "1 of 9"}